Legend:
[1] = test system: AEC2s in alveolar organoids; experiment: Alveolar organoid culture treated with Nutlin-3a, Ki67 and AGER immunostaining; assay type: cell-based, mouse; settings: organoids treated from day 7 until harvest on day 15; 2 μm; compared with controls (DMSO)
Experimental: Alveolar organoid culture was performed as described previously (Barkauskas et al., 2013, J. Clin. Invest. 123:1118-1123). Briefly, lineage-labeled AEC2s (1-3×10^3) from Sftpc-GFP or Sftpc-CreER; R26R-tdTomato mice treated with Tmx were sorted by FACS, and PDGFRα+(5×10^4) fibroblasts were resuspended in MTEC/Plus and mixed with an equal amount of growth-factor-reduced Matrigel (Corning, 354230). The medium was changed every other day.

TP53 signaling = experiment: Nutlin-3a treatment after bleomycin injury in Sftpc-CreER; R26R-tdTomato mice, AGER immunostaining; settings: bleomycin-injured mice; 20 mg kg-1 d-1 intraperitoneal, days 8-18 after injury; tissue collected day 20; compared with DMSO

COc1ccc(C2=N[C@@H](c3ccc(Cl)cc3)[C@@H](c3ccc(Cl)cc3)N2C(=O)N2CCNC(=O)C2)c(OC(C)C)c1 [Nutlin-3a]
number and intensity of AGER+ cells [1]: an increase in the number and intensity of AGER+ cells | number of Ki67+ proliferating cells [1]: a decrease in the number of Ki67+ proliferating cells | differentiation of Sftpc-tdt+ cells into AEC1s (AGER+ proportion of total Sftpc-tdt+ cells) (TP53 signaling): significantly higher differentiation of Sftpc-tdt+ cells into AEC1s

Source: patent publication US12613236B2, “Lung fibrosis model and methods of using the same” (DUKE UNIVERSITY, priority 2019, dated 2026)
